Drawing on patent US8481750B2 (Boehringer Ingelheim International GmbH, priority 2009, dated 2013), this text covers IC50 for 8 compounds.

Protein sequences, listed by entry. Tags and fused reporters are not part of them. Residues count along the entry.
UniProt P05107, 23-769 limits assumed: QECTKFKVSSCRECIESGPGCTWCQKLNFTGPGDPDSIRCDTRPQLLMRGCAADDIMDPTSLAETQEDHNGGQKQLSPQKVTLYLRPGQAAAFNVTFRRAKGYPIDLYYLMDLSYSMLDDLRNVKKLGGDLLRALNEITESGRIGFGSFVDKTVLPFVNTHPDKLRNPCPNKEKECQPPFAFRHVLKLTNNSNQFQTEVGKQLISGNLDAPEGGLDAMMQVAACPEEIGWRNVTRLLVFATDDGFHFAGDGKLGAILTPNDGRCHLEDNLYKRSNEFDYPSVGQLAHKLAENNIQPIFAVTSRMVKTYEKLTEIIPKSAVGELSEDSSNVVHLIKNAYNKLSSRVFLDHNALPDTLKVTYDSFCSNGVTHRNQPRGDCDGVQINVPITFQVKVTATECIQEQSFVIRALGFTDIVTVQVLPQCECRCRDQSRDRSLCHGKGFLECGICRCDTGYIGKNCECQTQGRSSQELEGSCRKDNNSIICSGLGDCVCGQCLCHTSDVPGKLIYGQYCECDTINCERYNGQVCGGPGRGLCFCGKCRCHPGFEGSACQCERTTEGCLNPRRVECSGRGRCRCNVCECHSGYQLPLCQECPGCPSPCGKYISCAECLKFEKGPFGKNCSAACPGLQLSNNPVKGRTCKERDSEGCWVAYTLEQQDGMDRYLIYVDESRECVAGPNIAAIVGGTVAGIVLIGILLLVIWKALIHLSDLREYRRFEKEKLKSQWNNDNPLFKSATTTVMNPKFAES
UniProt P20701, 26-1170 limits assumed: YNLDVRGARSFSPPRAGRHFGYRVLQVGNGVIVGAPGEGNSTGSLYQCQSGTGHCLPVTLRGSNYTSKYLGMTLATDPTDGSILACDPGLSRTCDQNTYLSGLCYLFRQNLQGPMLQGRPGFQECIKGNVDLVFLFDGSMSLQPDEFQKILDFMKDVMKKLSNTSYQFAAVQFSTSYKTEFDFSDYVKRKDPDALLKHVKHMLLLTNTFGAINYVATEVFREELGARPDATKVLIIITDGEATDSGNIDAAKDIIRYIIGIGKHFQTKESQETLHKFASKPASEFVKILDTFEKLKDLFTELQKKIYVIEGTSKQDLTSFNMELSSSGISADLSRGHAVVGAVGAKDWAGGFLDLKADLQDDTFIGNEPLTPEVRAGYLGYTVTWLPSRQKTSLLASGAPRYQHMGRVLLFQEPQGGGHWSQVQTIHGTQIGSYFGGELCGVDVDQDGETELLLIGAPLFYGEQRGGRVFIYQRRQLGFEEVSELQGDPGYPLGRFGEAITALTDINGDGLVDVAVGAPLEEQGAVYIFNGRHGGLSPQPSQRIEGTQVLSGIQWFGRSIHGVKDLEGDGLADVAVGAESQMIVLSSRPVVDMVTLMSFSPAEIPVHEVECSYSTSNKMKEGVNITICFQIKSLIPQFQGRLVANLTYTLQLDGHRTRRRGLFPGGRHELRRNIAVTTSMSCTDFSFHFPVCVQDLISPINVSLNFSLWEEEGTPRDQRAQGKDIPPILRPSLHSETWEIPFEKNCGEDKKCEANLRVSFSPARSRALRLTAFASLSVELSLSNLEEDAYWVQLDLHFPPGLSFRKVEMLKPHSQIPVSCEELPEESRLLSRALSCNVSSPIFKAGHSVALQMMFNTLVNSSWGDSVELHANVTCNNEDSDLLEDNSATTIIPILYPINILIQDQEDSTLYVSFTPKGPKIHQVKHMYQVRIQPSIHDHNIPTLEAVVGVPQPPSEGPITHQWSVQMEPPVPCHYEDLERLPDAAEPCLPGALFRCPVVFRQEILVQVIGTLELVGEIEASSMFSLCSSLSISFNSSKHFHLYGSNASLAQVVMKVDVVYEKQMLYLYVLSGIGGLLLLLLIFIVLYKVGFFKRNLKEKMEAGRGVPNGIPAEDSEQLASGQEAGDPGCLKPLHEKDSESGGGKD

SMILES strings stand for the structures.

The first test has as its target LFA-1 binding to ICAM-1 (Homo sapiens, UniProt P05107+P20701). The test is described as follows: Inhibition of LFA-1 binding to ICAM-1 (LFA-1/Biotin-sICAM-1 AlphaScreen molecular assay). Particulars: read-out: Alphascreen IC50, highest compound concentration 1 μM in 1% DMSO, 37° C., 90 minutes. The source says: Assay to Determine Inhibition of LFA-1 Binding to ICAM-1
This assay protocol is designed to study the direct antagonism, by a test compound, of the interaction of ICAM-1 with the Leukointegrin CD18/CD11a (LFA-1).
The LFA-1/Biotin-sICAM-1 molecular assay measures the ability of test compounds to inhibit binding of LFA-1 to Biotinylated-sICAM using AlphaScreen technology (Ref: Wilson, J, Rossi, C P, Carboni, S, Fremaux, C, Perrin, D, Soto, C, Kosco-Vilbois, M, and Scheer, A: A Homogeneous 384-Well High-Throughput Binding Assay for a TNF Receptor Using Alphascreen Technology. J Biomol Screen 2003; 8:522-532) that uses TS2/4(anti-LFA-1)-custom conjugated AlphaLisa acceptor beads and streptavidin-coated donor beads from PerkinElmer. The assay was performed in white OptiPlates-384 in a volume of 60 μL using assay buffer (Dulbecco's PBS containing calcium and magnesium, 2 mM MgCl2, 0.1 mM PMSF, 0.1% BSA, pH 7.1). To each well, Biotin-sICAM was added followed by purified LFA-1 (in buffer of 50 mM triethylamine, 150 mM NaCl, 1% beta octylglucoside, 2 mM MgCl2 neutralized to pH with 1M Tris-HCl, pH 7.5). For compound testing, compound was added in 5 uL to the above in 25 uL. LFA-1 and Biotin-sICAM-1 were used at concentrations that would yield a signal to background ratio of 8-10. The highest concentration of compound was 1 μM in 1% DMSO. Positive controls were wells without compound containing LFA-1, while blanks were wells without both compound and LFA-1. Plates were mixed and incubated at 37° C. for 90 minutes. This was followed by addition of 15 μL/well TS2/4-congugated acceptor beads diluted in PBS containing 0.1% BSA for a final concentration of 10 μg/mL. The plates were mixed and incubated in the dark for 30 minutes at room temperature followed by addition of 15 μL/well streptavidin-coated donor beads diluted in PBS containing 0.1% BSA at a final concentration of 15 μg/mL. The plates were mixed and incubated in the dark for 60 minutes at room temperature and then read on an EnVision Multilabel Reader using AlphaScreen 384-well OptiPlate protocol.
A general note: Alpha assays give light when donor and acceptor beads are brought close together.
As to `C[C@@H](O)CNC(=O)c1ccnc(C2(NC(=O)C3(NC(=O)c4cnc5n4[C@](C)(Cc4ccc(C#N)cc4)C(=O)N5c4cc(Cl)cc(Cl)c4)CC3)CC2)c1`, the IC50 was 1.3 nM.

As to `C[C@H](O)CNC(=O)c1ccnc(C2(NC(=O)C3(NC(=O)c4cnc5n4[C@](C)(Cc4ccc(C#N)cc4)C(=O)N5c4cc(Cl)cc(Cl)c4)CC3)CC2)c1`, the IC50 came out at 0.27 nM. On to `C[C@@]1(Cc2ccc(C#N)cc2)C(=O)N(c2cc(Cl)cc(Cl)c2)c2ncc(C(=O)NC3(C(=O)NC4(c5cc(C(N)=O)ccn5)CC4)CC3)n21`, for which the IC50 came out at 0.54 nM. As to `C[C@@]1(Cc2ccc(OC(F)(F)F)cc2)C(=O)N(c2cc(Cl)c(F)c(Cl)c2)c2ncc(C(=O)NC3(C(=O)NC4(c5ccc(C(N)=O)cn5)CC4)CC3)n21`, the IC50 was 1.9 nM.

`C[C@@]1(Cc2ccc(C#N)cc2)C(=O)N(c2cc(Cl)cc(Cl)c2)c2ncc(C(=O)NC3(C(=O)NC4(c5cc(C(=O)N6CCC(C(N)=O)CC6)ccn5)CC4)CC3)n21`: the IC50 stood at 0.55 nM. Same read-out and setting: the value for `C[C@@]1(Cc2ccc(C#N)cc2)C(=O)N(c2cc(Cl)cc(Cl)c2)c2ncc(C(=O)NC3(C(=O)NC4(c5cc(C(=O)NC6CC6)ccn5)CC4)CC3)n21` was 0.67 nM; that for `C[C@@]1(Cc2ccc(OC(F)(F)F)cc2)C(=O)N(c2cc(Cl)c(F)c(Cl)c2)c2ncc(C(=O)NC3(C(=O)NC4(c5ccc(C(=O)NC6CC6)cn5)CC4)CC3)n21` was 0.8 nM.

Still in this test, the particulars now being: read-out: Alphascreen IC50, highest compound concentration 1 μM in 1% DMSO, 37° C., 90 minutes, tested form: HCl.
With `C[C@@]1(Cc2ccc(C#N)cc2)C(=O)N(c2cc(Cl)cc(Cl)c2)c2ncc(C(=O)NC3(C(=O)NC4(c5cc(C(=O)NCCN)ccn5)CC4)CC3)n21`, the IC50 came to 0.39 nM.
